{"sequences": {"note": "Protein sequences, listed by entry. Tags and fused reporters are not part of them.", "UniProt P03372, whole entry": "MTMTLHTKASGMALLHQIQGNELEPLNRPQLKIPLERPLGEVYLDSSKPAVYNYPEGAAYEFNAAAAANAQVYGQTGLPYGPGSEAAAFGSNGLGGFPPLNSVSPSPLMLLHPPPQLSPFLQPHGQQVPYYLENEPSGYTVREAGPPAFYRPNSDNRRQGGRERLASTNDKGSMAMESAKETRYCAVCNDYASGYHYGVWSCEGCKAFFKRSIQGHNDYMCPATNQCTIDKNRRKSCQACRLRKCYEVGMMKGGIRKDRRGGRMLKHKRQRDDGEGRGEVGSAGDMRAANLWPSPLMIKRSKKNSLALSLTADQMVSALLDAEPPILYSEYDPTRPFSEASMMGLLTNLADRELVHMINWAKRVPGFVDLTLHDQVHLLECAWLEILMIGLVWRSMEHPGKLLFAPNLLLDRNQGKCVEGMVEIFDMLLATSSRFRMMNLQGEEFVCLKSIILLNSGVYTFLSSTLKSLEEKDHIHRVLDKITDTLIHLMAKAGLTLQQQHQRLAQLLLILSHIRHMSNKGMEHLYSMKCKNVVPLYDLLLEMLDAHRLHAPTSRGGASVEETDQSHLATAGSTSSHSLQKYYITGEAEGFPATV"}, "source": "patent US20250314869A1", "key": {"[1]": {"biological_target": "T1, Estrogen Receptor (ER) (Homo sapiens, UniProt P03372)", "T1 construct": "expressed in transfected cells", "assay": "residence time imaging of ER-Halo (track length)", "format": "cell-based", "details": "track length distribution versus DMSO or other ER modulators"}, "[2]": {"biological_target": "T2, progesterone receptor (PR) (Homo sapiens, UniProt P06401)", "T2 construct": "expressed in transfected cells", "T2 sequence (P06401 1-933)": "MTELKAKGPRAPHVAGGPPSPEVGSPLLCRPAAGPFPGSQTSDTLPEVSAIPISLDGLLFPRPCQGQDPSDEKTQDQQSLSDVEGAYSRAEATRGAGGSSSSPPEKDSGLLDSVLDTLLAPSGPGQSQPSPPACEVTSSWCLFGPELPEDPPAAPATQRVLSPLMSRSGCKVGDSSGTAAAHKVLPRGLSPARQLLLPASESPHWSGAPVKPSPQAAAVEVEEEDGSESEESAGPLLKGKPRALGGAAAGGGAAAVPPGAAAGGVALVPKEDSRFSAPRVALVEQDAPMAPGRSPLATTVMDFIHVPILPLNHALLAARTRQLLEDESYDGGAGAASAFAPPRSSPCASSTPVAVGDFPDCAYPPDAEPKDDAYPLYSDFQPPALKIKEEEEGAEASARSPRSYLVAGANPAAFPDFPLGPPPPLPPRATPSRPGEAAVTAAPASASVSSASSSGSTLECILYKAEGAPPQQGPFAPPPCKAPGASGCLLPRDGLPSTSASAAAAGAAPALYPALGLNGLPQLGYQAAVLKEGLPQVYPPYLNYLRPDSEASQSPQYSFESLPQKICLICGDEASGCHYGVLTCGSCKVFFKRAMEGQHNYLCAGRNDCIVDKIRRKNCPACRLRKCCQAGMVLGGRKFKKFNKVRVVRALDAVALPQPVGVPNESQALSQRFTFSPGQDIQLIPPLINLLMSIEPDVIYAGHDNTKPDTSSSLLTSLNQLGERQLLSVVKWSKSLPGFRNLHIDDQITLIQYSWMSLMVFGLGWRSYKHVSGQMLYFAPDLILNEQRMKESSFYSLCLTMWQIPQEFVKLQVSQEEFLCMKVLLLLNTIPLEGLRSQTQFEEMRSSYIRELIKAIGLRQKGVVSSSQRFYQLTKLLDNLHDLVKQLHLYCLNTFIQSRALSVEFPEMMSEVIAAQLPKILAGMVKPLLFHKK", "assay": "htSMT of Halo-PR in U2OS cells", "format": "cell-based", "details": "1 μM antagonist in absence or presence of cognate agonist"}}}
{"smiles": "C[C@]12CC[C@@H]3c4ccc(O)cc4C[C@@H](CCCCCCCCC[S+]([O-])CCCC(F)(F)C(F)(F)F)[C@H]3[C@@H]1CC[C@@H]2O", "note": "(some centres unmarked)", "values": [{"measurement": "ER binding (residence) times on chromatin", "setting": "[1]", "value": "longer binding times"}]}
{"smiles": "CC#C[C@]1(O)CC[C@H]2[C@@H]3CCC4=CC(=O)CCC4=C3[C@@H](c3ccc(N(C)C)cc3)C[C@@]21C", "note": "[mifepristone]", "values": [{"measurement": "PR fbound / chromatin binding", "setting": "[2]", "value": "behaves similarly to ER antagonists"}]}
